In ChEMBL document CHEMBL1152298 (J Med Chem, 2008) one finds Ratio Ki data, which are given here for one compound.

The assay in a line: Ratio of Ki for GABAA alpha1 T162C beta2gamma2 receptor mutant to Ki for GABAA alpha-1-beta-2-gamma-2 receptor.

On to `CN1CCN(C(=O)O[C@H]2c3nccnc3C(=O)N2c2ccc(Cl)cn2)CC1` [ESZOPICLONE], for which the Ratio Ki came to 0.7.
